Values joined by “and” are separate entries in the source; they are usually repeats but may differ in a detail not shown here. Equal entries are not always repeated. Where two headings read alike, the source gives them in different places.
Tests used:
Ang-2 = test: Serum Ang-2 ELISA in patients receiving HD IL-2; format: in vivo, human
Description: For the pilot sepsis study, weekday admissions to the BIDMC intensive care unit were screened daily for a two-month period and enrolled if they met criteria for sepsis (SIRS+evidence of infection). SIRS was defined by the presence of 2 of the following 4: (1) temperature<36° C. or >38° C.; (2) heart rate>90 beats/minute; (3) respiratory rate>20 breaths/minute or PaCO2<32 mmHg; (4) white blood cell count>12,000 cells/mm', <4000 cells/mm^3, or >10% immature forms. Severe sepsis was defined by the presence of shock or multi-organ dysfunction. Serum was aliquoted in a sterile fashion into cryo-vial tubes and stored at −80° C. prior to ELISA. Stable Ang-2 signal was confirmed through several freeze-thaw cycles. All data were encrypted to protect patient privacy. For the pilot HD IL-2 study, patients receiving HD IL-2 provided informed consent permitting access to serum and clinical data which were processed as outlined above. Serum and clinical data were collected in accordance with BIDMC IRB approved protocols.
Ang-2 was measured in patient serum by sandwich ELISA using the reagents and protocol supplied with the human Ang-2 ELISA kit (R&D systems, Minneapolis, Minn.).
(§1) Over a 6 month period at Beth Israel Deaconess Medical Center we prospectively collected discarded serum and plasma samples from oncology patients receiving high dose IL-2. In our first feasibility protocol on 4 patients, we collected only Day 1—before HD IL-2 and Day 6 (after HD IL-2). After detailing these promising results, we then collected bloods before IL-2 infusion and with each successive days morning labs. Whenever possible, we also obtained discarded blood from all follow up outpatient appointments. All identifying information was removed and data was encoded to protect patient privacy. Clinical data was collected on each patient by chart review. This study was approved by the institutional IRB.
Ang-2 was measured in serum samples from patients by sandwich ELISA using the reagents and protocol supplied with the human Ang-2 ELISA kit (R&D Systems, Minneapolis, Minn., United States). Preliminary experiments confirmed the stability of Ang-2 in serum for 6-12 hours at room temperature as well as its stability through several freeze-thaw cycles.

VEGF = test: Serial free VEGF levels in patients on HD IL-2; format: in vivo, human; settings: 8 subjects on HD IL-2
From the text: as §1
Of note, four patients received an anti-VEGF agent bevacizumab two weeks before starting HD IL-2 and we also collected baseline, bevacizumab treated, and HDIL2 protocol samples on these patients.

[1] = Clinical signs of vascular leak syndrome in patients receiving HD IL-2; format: in vivo, human
From the text: as §1

[2] = cited from earlier work; for response rate: metastatic renal cell carcinoma and melanoma
[3] = individual patients 1-14 on HD IL-2, listed as IL2

Substance: HD IL-2: High-dose interleukin-2, FDA-approved therapy for metastatic renal cell cancer
- patients in whom Ang 2 levels rose (Ang-2; HD IL-2 administration): 14/14
- Peak Ang 2 (Ang-2; [3]): 6.9 ng/ml and 31.4 ng/ml (2×) and 18.2 ng/ml and 51.9 ng/ml and 22.3 ng/ml and 52.6 ng/ml and 41.8 ng/ml and 30.0 ng/ml and 40.0 ng/ml and 29.4 ng/ml and 28.1 ng/ml and 26.5 ng/ml and 12.6 ng/ml
- serum Ang-2 following HD IL-2 therapy (Ang-2; n=4, post-IL-2 infusion): 27.14 ± 4.06 ng/mL
- peak serum Ang-2 (Ang-2; one patient, 5-day infusion, day 6): 48.59 ng/mL
- serum Ang-2 after decline over 24 hours (Ang-2; one patient, day 7): 19.21 ng/mL
- average post treatment Ang-2 level (Ang-2; pilot study, one day after completion of IL-2 therapy): 25 ng/mL
- trend of free VEGF during infusion (VEGF): no trend
- hypotension ([1]; 14 patients): All patients had hypotension requiring IVF boluses
- median weight gain from admission ([1]; 14 patients): 9.8%
- patients requiring supplemental oxygen ([1]; 14 patients): four
- patients requiring vasopressors in addition to IVF ([1]; 14 patients): Five of the fourteen patients
- % Weight Gain from baseline (kgs) [1, 3]: 10.7% and 9.6% and 12.0% and 10.0% and 13.4% and 7.4% and 5.5% and 8.3% (2×) and 10.2% and 13.3% and 10.5% and 7.9% and 7.3%
- response rate [2]: ~10%
- response rate ([2]; listed as IL2): 10-15%
- subjects developing dose-limiting vascular leak syndrome ([2]; subjects receiving HD IL-2): Up to 65%

— patent US20130252821A1, “METHODS AND COMPOSITIONS FOR THE TREATMENT AND DIAGNOSIS OF DISEASES CHARACTERIZED BY VASCULAR LEAK, HYPOTENSION, OR A PROCOAGULANT STATE” (Beth Israel Deaconess Medical Center, Inc., priority 2005, published 2013)
